Assay results reported in PubChem BioAssay AID602244 (Sanford-Burnham Center for Chemical Genomics, 2012).
This is a selection; strong and weak results do not stand in their true shares. Some salts and complexes are drawn in separate pieces, as the source files them; their charges need not balance. The source made the active and inactive calls. Cut-off read from the data, not from the text of the source: active = inhibition above about 34% (passing the limit was not always enough); inactive = the rest.

The chains behind the UniProt entries cited, without tags or fusion partners.
UniProt O00574, whole entry: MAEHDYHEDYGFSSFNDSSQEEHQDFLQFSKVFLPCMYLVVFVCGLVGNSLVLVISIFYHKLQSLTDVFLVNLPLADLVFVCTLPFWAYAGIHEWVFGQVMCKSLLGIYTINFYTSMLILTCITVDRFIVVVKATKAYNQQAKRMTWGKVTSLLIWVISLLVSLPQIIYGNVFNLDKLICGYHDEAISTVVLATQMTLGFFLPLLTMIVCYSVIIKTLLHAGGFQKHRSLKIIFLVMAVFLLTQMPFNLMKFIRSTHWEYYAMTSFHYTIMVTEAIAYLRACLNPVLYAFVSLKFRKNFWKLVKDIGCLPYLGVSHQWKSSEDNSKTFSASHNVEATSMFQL

These molecules were tested against C-X-C chemokine receptor type 6 (Homo sapiens) (UniProt O00574) (assay: blockade of CXCL16-induced CXCR6 beta-arrestin recruitment – cell-based, luminescence, CHO-K1 PathHunter, 1536-well, primary screen (AID 602244;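 note: antagonist mode with CXCL16 agonist at 10 nM final; 0% = 10 nM CXCL16 with DMSO and 100% = unstimulated wells without agonist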)). Conditions: at 20 µM, active compounds read high.

SMILES | inhibition
O=C(O)c1cccc(Nc2c([N+](=O)[O-])cc([N+](=O)[O-])cc2[N+](=O)[O-])c1 | active: 40%
CC1=NCCc2c1[nH]c1ccccc21.O=[N+]([O-])c1cc([N+](=O)[O-])c(O)c([N+](=O)[O-])c1 | inactive: 4.5%
COc1ccccc1OP(C)(=O)Nc1cccc(Br)c1 (centres undefined) | inactive: -4.8%
Cc1cc(C)cc(OP(C)(=O)Nc2ccc(C)cc2C)c1 (centres undefined) | inactive: 2.3%
CCOC(=O)c1ccc(NP(C)(=O)Oc2cc(C)cc(C)c2)cc1 (centres undefined) | inactive: 11.3%
CP(=O)(Nc1cccc(Br)c1)Oc1ccccc1 (centres undefined) | inactive: -3.7%
Cc1cc(C)cc(OP(C)(=O)Nc2ccccn2)c1 (centres undefined) | inactive: -3.7%
Cc1ccc(C)c(NP(C)(=O)Oc2ccccc2)c1 (centres undefined) | inactive: 3%
O=[N+]([O-])c1cc([N+](=O)[O-])c(-n2nnc3ccccc32)c([N+](=O)[O-])c1 | inactive: 0.6%
CN(Cc1cccnc1)C(=O)COc1ccc(Cl)c(Cl)c1.O=[N+]([O-])c1cc([N+](=O)[O-])c(O)c([N+](=O)[O-])c1 | inactive: 24.1%
O=[N+]([O-])c1cc([N+](=O)[O-])c(-c2cnn(-c3ccccc3)c2)c([N+](=O)[O-])c1 | inactive: -59.6%
Cc1nc2ccc3ccccc3c2s1.O=[N+]([O-])c1cc([N+](=O)[O-])c(O)c([N+](=O)[O-])c1 | inactive: 14.7%
CCOC(=O)C(CC)C1=NC(C)(C)Cc2ccccc21.O=[N+]([O-])c1cc([N+](=O)[O-])c(O)c([N+](=O)[O-])c1 (centres undefined) | inactive: 15.3%
O=[N+]([O-])c1cc([N+](=O)[O-])c(Nc2nnnn2CCO)c([N+](=O)[O-])c1 | inactive: 29.2%
CC1=C2N=C(C=C3N=C(C(C)=C4[N-][C@@](C)([C@@H]5N=C1[C@](C)(CCC(=O)NC[C@@H](C)OP(=O)([O-])O[C@H]1[C@@H](O)[C@@H](n6cnc7cc(C)c(C)cc76)O[C@@H]1CO)[C@H]5CC(N)=O)[C@@](C)(CC(N)=O)[C@@H]4CCC(N)=O)[C@@](C)(CC(N)=O)[C@@H]3CCC(N)=O)C(C)(C)[C@@H]2CCC(N)=O.[C-]#N.[Co+3] | inactive: 6.8%
COc1ccccc1OP(C)(=O)Nc1c(C)cccc1C (centres undefined) | inactive: 9.7%
CN1CCCCC1COC(=O)C1(O)c2ccccc2CCc2ccccc21 (centres undefined) | inactive: -4.8%
CP(=O)(Nc1ccc(SC(F)(F)F)cc1)Oc1ccccc1 (centres undefined) | inactive: -3.4%
CCCOc1ccc(NP(C)(=O)Oc2ccc(Cl)cc2)cc1 (centres undefined) | inactive: -7.9%
COc1ccc(-c2ccccn2)cc1.O=[N+]([O-])c1cc([N+](=O)[O-])c(O)c([N+](=O)[O-])c1 | inactive: 12.1%
CP(=S)(Nn1cnnc1)Oc1ccccc1 (centres undefined) | inactive: 6.6%
COc1ccccc1OP(C)(=O)Nc1ccccc1 (centres undefined) | inactive: 0.6%
CP(=O)(Nc1ccccc1Br)Oc1ccccc1 (centres undefined) | inactive: -7.1%
CP(=O)(Oc1ccccc1)OC(c1ccccc1)C(F)(F)F (centres undefined) | inactive: -5.8%
Cc1cccc(C)c1OP(C)(=O)Nc1ccc(SC(F)(F)F)cc1 (centres undefined) | inactive: -1.9%

SMILES | inhibition
Cc1ccc(Nc2c([N+](=O)[O-])cc([N+](=O)[O-])cc2[N+](=O)[O-])cc1 | active: 41.7%
CP(=O)(Nc1ccc(SC(F)(F)F)cc1)Oc1ccc(Cl)cc1 (centres undefined) | inactive: -16.5%
Cc1cc(C)cc(OP(C)(=O)Nc2ccc(SC(F)(F)F)cc2)c1 (centres undefined) | inactive: 10.1%
CCc1ccc(OP(C)(=O)N2CCN(c3ccc([N+](=O)[O-])cc3)CC2)cc1 (centres undefined) | inactive: -5.1%
CP(=O)(NC(=O)Nc1ccccc1)Oc1ccccc1 (centres undefined) | inactive: 5%
CCOP(C)(=S)SCC(=O)NC(C)C(=O)O (centres undefined) | inactive: 1.2%
CCOC(=O)c1ccc(NP(C)(=O)Oc2ccc(OC)cc2)cc1 (centres undefined) | inactive: -3.7%
O=[N+]([O-])c1cc([N+](=O)[O-])c(O)c([N+](=O)[O-])c1.c1ccc(Oc2ccncc2)cc1 | inactive: 13.2%
CP(=O)(Nc1ccccn1)Oc1ccc(Cl)cc1 (centres undefined) | inactive: -7.7%
CCN(CC)CCCOC(=O)C(O)(c1ccccc1)c1ccccc1 | inactive: 6.6%
COc1ccccc1-c1ccccn1.O=[N+]([O-])c1cc([N+](=O)[O-])c(O)c([N+](=O)[O-])c1 | inactive: 14.3%
O=[N+]([O-])c1cc([N+](=O)[O-])c(Nc2cccnc2)c([N+](=O)[O-])c1 | inactive: 24.9%
Cc1cccc(C)c1OP(C)(N)=O (centres undefined) | inactive: 0%
CC(C)(C)c1ccc(OP(C)(=O)Nc2ccc(SC(F)(F)F)cc2)cc1 (centres undefined) | inactive: 2.2%
O=[N+]([O-])c1ccc2c(c1)C=Nc1ccccc1O2 | inactive: -9.1%
CCOC(=O)c1ccc(NP(C)(=O)Oc2ccccc2)cc1 (centres undefined) | inactive: -7.6%
Cc1ccc(NP(C)(=O)Oc2ccccc2)c(C)c1 (centres undefined) | inactive: -2.8%
COc1ccccc1OP(C)(=O)Nc1ccc(C)cc1 (centres undefined) | inactive: -3.3%
COc1ccc(OP(C)(=O)Nc2cccc(F)c2)cc1 (centres undefined) | inactive: -1.7%
COc1ccccc1OP(C)(=O)Nc1cc(Cl)ccc1C (centres undefined) | inactive: -0.4%
Cc1cc(C)cc(OP(C)(N)=O)c1 (centres undefined) | inactive: -4.2%
Cc1cc(C)cc(OP(C)(=O)Nc2cccc(C(F)(F)F)c2)c1 (centres undefined) | inactive: -1.3%
O=C1C(O)=C([N+](=O)[O-])C(=O)C(O)=C1[N+](=O)[O-] | inactive: 6.7%
COc1ccc(OP(C)(=O)Nc2ccccc2Br)cc1 (centres undefined) | inactive: 1.4%
COc1ccccc1OP(C)(=O)Nc1ccc(C)c(C)c1 (centres undefined) | inactive: 0.9%

SMILES | inhibition
CP(=O)(OCCOc1ccccc1)OCCOc1ccccc1 | inactive: -5.7%
CP(=O)(Nc1ccc(Cl)cc1Cl)Oc1ccccc1 (centres undefined) | inactive: -0.1%
CCCCCCCCCCCCCCCC1C[N+](C)(C)CCOP(C)(=O)O1 (centres undefined) | inactive: 29.1%
COc1ccccc1OP(C)(=O)Nc1ccc(Br)cc1 (centres undefined) | inactive: -5.1%
CN(C)CCOC(=O)C(O)(c1ccccc1)C1CCCC1 (centres undefined) | inactive: 2%
COc1ccc(OP(C)(=O)Nc2ccccn2)cc1 (centres undefined) | inactive: -0.1%
O=[N+]([O-])c1cc([N+](=O)[O-])c(Nc2ccccn2)c([N+](=O)[O-])c1 | inactive: 22.7%
Cc1c(NP(C)(=O)Oc2ccc(C(C)C)cc2)c(=O)n(-c2ccccc2)n1C (centres undefined) | inactive: 9.1%
CCc1ccc(OP(C)(=O)O)cc1 | inactive: 0%
COc1ccccc1OP(C)(=O)Nc1ccc(C)cc1C (centres undefined) | inactive: -10.2%
CP(=O)(Nc1ccccn1)Oc1ccccc1 (centres undefined) | inactive: -1.5%
COc1ccc(OP(C)(=O)Nc2ccc(Br)cc2)cc1 (centres undefined) | inactive: 0.5%
CCN(CC)CC(O)COC(=O)C(O)(c1ccccc1)C1CCCCC1 (centres undefined) | inactive: -25.7%
CCc1ccc(OP(C)(=O)Nc2cccnc2)cc1 (centres undefined) | inactive: 2.5%
CP(=O)(Oc1ccccc1)N1CCOC1=O (centres undefined) | inactive: -8.3%
O=C(OCCCN1CCCC1)C(O)(c1ccccc1)C1CCCCC1 (centres undefined) | inactive: 12.3%
COc1ccccc1OP(C)(=O)Nc1c(C)n(C)n(-c2ccccc2)c1=O (centres undefined) | inactive: 1.2%
CP(=O)(Nc1ccc(Cl)cc1)Oc1ccc(F)cc1 (centres undefined) | inactive: 0.5%
CC(C)(C)c1ccc(OP(C)(=O)O)cc1 | inactive: -4.6%
COc1ccccc1OP(C)(=O)Nc1ccccc1Br (centres undefined) | inactive: 9.9%
CN(C)C(=O)c1c([N+](=O)[O-])cc([N+](=O)[O-])cc1[N+](=O)[O-] | inactive: -17.9%
CP(=O)(OC12CC3CC(CC(C3)C1)C2)OC12CC3CC(CC(C3)C1)C2 | inactive: -2.1%
CCOC(=O)c1ccc(NP(C)(=O)Oc2ccc(Cl)cc2)cc1 (centres undefined) | inactive: -7.8%
COc1ccc(OP(C)(=O)Nc2cccc(Br)c2)cc1 (centres undefined) | inactive: -5.4%
COc1ccc(NP(C)(=O)Oc2ccccc2OC)cc1 (centres undefined) | inactive: -7%

SMILES | inhibition
CN(C)CCOC(=O)C(O)(c1ccccc1)C1CCCCC1 (centres undefined) | inactive: 1.6%
O=[N+]([O-])c1cc([N+](=O)[O-])c(NCC2CCS(=O)(=O)C2)c([N+](=O)[O-])c1 (centres undefined) | inactive: -2.7%
Cc1cc(-c2cccc3ccccc23)c(C)cn1.O=[N+]([O-])c1cc([N+](=O)[O-])c(O)c([N+](=O)[O-])c1 | inactive: 12.5%
O=[N+]([O-])c1ccc(OP2(=O)COCCO2)cc1 (centres undefined) | inactive: 0.3%
Cc1c(C(c2ccc3c(c2)OCO3)c2c(C)n(C)n(-c3ccccc3)c2=O)c(=O)n(-c2ccccc2)n1C.O=[N+]([O-])c1cc([N+](=O)[O-])c(O)c([N+](=O)[O-])c1 | inactive: -7.8%
CP(=O)(Nc1ccc(SC(F)(F)F)cc1)Oc1ccc(F)cc1 (centres undefined) | inactive: -8.6%
CCOP(C)(=S)SCC(=O)NC(C)(CC)C(=O)O (centres undefined) | inactive: -5%
CP(=O)(Nc1ccc2c(c1)OCCO2)Oc1ccccc1 (centres undefined) | inactive: 7.1%
O=[N+]([O-])c1cc([N+](=O)[O-])c(C(F)(F)F)c([N+](=O)[O-])c1O | inactive: 16.6%
Cc1ccccc1NP(C)(=O)Nc1ccccc1C | inactive: -3.7%
O=[N+]([O-])c1cc([N+](=O)[O-])c(Nc2ccc(Cl)cc2)c([N+](=O)[O-])c1 | active: 44.6%
CC(C)c1ccc(OP(C)(=O)Nc2ccc(SC(F)(F)F)cc2)cc1 (centres undefined) | inactive: -7.9%
CP(=O)(Nc1ccccc1F)Oc1ccccc1 (centres undefined) | inactive: 7.1%
O=C(OCCN1CCN(CCOCc2ccccc2)CC1)C(O)(c1ccccc1)c1ccccc1 | inactive: -4.6%
O=C(OC1CN2CCC1CC2)c1ccc([N+](=O)[O-])cc1 (centres undefined) | inactive: -3.3%
COc1ccc2c(c1O)-c1c(O)c(OC)cc3c1[C@H](C2)[N+](C)(C)CC3.O=[N+]([O-])c1cc([N+](=O)[O-])c([O-])c([N+](=O)[O-])c1[O-] | inactive: 1.5%
CCN(CC)CCCNc1ccccc1[N+](=O)[O-].O=[N+]([O-])c1cc([N+](=O)[O-])c(O)c([N+](=O)[O-])c1 | inactive: 15.6%
COc1ccc(OP(C)(=O)Nc2ccc(SC(F)(F)F)cc2)cc1 (centres undefined) | inactive: 5%
CCOC(=O)c1ccc(NP(C)(=O)Oc2ccc(F)cc2)cc1 (centres undefined) | inactive: -2.5%
CCN(CC)CCCOC(=O)C(O)(c1ccccc1)C1CCCCC1 (centres undefined) | inactive: 4.3%
Cc1c([N+](=O)[O-])cc([N+](=O)[O-])c(Br)c1[N+](=O)[O-] | inactive: 11.4%
O=[N+]([O-])c1cc([N+](=O)[O-])c(OC2CCCCC2O)c([N+](=O)[O-])c1 (centres undefined) | inactive: 21.5%
CCCCCOc1ccc(NP(C)(=O)Oc2ccc(Cl)cc2Cl)cc1 (centres undefined) | inactive: 4.4%
CP(=O)(Nc1ccccc1)Oc1ccc(F)cc1 (centres undefined) | inactive: -6.9%
